Here are results for one compound from paper PMC6177439, “Peptide-oligonucleotide conjugates exhibiting pyrimidine-X cleavage specificity efficiently silence miRNA target acting synergistically with RNase H” (Scientific Reports, 2018).

Series [1] is described as follows: Nuclease resistance (stability) in DMEM with fetal bovine serum. The format is in vitro ADME.
The test system of series [2] is miR-17. As to the kind of experiment: RNA cleavage assay, miR-17. The series is classed as biochemical. The settings on record: miR-17 1 µM, conjugate 30 µM, 37 °C.
Series [3] relates to miR-21. As to the kind of experiment: RNA cleavage assay, miR-21. The format is biochemical. The following applies: miR-21 1 µM, 37 °C.
Series [4] deals with miR-21^hybrid. As to the kind of experiment: RNA cleavage assay, miR-21^hybrid. The format is biochemical. The following applies: RNA 1 µM, conjugate 20 µM, 37 °C, 24 h time point.
For series [5], the system named is miR-21. The experiment in a line: Gel-retardation assay, hybridization with miR-21. The settings on record: at equimolar concentration and higher; miR-21 1 µM, 0.5-10 µM oligonucleotide or conjugate, 37 °C, 1 h, 50 mM Tris-HCl pH 7.0, 0.2 M KCl, 1 mM EDTA, 15% native PAAG. The series is classed as binding.

For the compound `Cc1cn([C@H]2C[C@H](OP(=O)(O)OC[C@H]3O[C@@H](n4ccc(N)nc4=O)C[C@@H]3OP(=O)(O)OC[C@H]3O[C@@H](n4cnc5c(N)ncnc54)C[C@@H]3OP(=O)(O)OC[C@H]3O[C@@H](n4cnc5c(N)ncnc54)C[C@@H]3OP(=O)(O)OCCOCCOCCOCCOP(=O)(O)OCCOCCOCCOCCOP(=O)(O)OC[C@H]3O[C@@H](n4cnc5c(N)ncnc54)C[C@@H]3OP(=O)(O)OC[C@H]3O[C@@H](n4cnc5c(=O)[nH]c(N)nc54)C[C@@H]3OP(=O)(O)OC[C@H]3O[C@@H](n4cc(C)c(=O)[nH]c4=O)C[C@@H]3OP(=O)(O)OC[C@H]3O[C@@H](n4ccc(N)nc4=O)C[C@@H]3OP(=O)(O)OC[C@H]3O[C@@H](n4cc(C)c(=O)[nH]c4=O)C[C@@H]3OP(=O)(O)OC[C@H]3O[C@@H](n4cnc5c(=O)[nH]c(N)nc54)C[C@@H]3OP(=O)(O)OC[C@H]3O[C@@H](n4cnc5c(N)ncnc54)C[C@@H]3OP(=O)(O)OC[C@H]3O[C@@H](n4cc(C)c(=O)[nH]c4=O)C[C@@H]3OP(=O)(O)OC[C@H]3O[C@@H](n4cnc5c(N)ncnc54)C[C@@H]3OP(=O)(O)OC[C@H]3O[C@@H](n4cnc5c(N)ncnc54)C[C@@H]3OP(=O)(O)OC[C@H]3O[C@@H](n4cnc5c(=O)[nH]c(N)nc54)C[C@@H]3OP(=O)(O)OC[C@H]3O[C@@H](n4ccc(N)nc4=O)C[C@@H]3OP(=O)(O)OC[C@H]3O[C@@H](n4cc(C)c(=O)[nH]c4=O)C[C@@H]3OP(=O)(O)OC[C@H]3O[C@@H](n4cnc5c(N)ncnc54)C[C@@H]3OP(=O)(O)OC[C@H]3O[C@@H](n4ccc(N)nc4=O)C[C@@H]3OP(=O)(O)OC[C@H]3O[C@@H](n4cnc5c(N)ncnc54)C[C@@H]3OP(=O)(O)OC[C@H]3O[C@@H](n4cnc5c(N)ncnc54)C[C@@H]3OP(=O)(O)OC[C@H]3O[C@@H](n4cnc5c(=O)[nH]c(N)nc54)C[C@@H]3OP(=O)(O)OC[C@H]3O[C@@H](n4cc(C)c(=O)[nH]c4=O)C[C@@H]3OP(=O)(O)OC[C@H]3O[C@@H](n4ccc(N)nc4=O)C[C@@H]3OP(=O)(O)OC[C@H]3O[C@@H](n4cnc5c(N)ncnc54)C[C@@H]3OP(=O)(O)OC[C@H]3O[C@@H](n4cnc5c(=O)[nH]c(N)nc54)C[C@@H]3OP(=O)(O)OC[C@H]3O[C@@H](n4ccc(N)nc4=O)C[C@@H]3OP(=O)(O)OC[C@H]3O[C@@H](n4cnc5c(=O)[nH]c(N)nc54)C[C@@H]3OP(=O)(O)OC[C@H]3O[C@@H](n4cnc5c(N)ncnc54)C[C@@H]3OP(=O)(O)OC[C@H]3O[C@@H](n4cnc5c(N)ncnc54)C[C@@H]3OP(=O)(O)OC[C@H]3O[C@@H](n4cnc5c(N)ncnc54)C[C@@H]3OP(=O)(O)OC[C@H]3O[C@@H](n4cnc5c(=O)[nH]c(N)nc54)C[C@@H]3OP(=O)(O)OC[C@H]3O[C@@H](n4ccc(N)nc4=O)C[C@@H]3OP(=O)(O)OC[C@H]3O[C@@H](n4cc(C)c(=O)[nH]c4=O)C[C@@H]3OP(=O)(O)OC[C@H]3O[C@@H](n4cnc5c(=O)[nH]c(N)nc54)C[C@@H]3OP(=O)(O)OC[C@H]3O[C@@H](n4cnc5c(N)ncnc54)C[C@@H]3OP(=O)(O)OC[C@H]3O[C@@H](n4ccc(N)nc4=O)C[C@@H]3OP(=O)(O)OC[C@H]3O[C@@H](n4cc(C)c(=O)[nH]c4=O)C[C@@H]3OP(=O)(O)OC[C@H]3O[C@@H](n4cc(C)c(=O)[nH]c4=O)C[C@@H]3OP(=O)(O)OC[C@H]3O[C@@H](n4cnc5c(=O)[nH]c(N)nc54)C[C@@H]3O)[C@@H](COP(=O)(O)N[C@@H](CC(C)C)C(=O)N[C@@H](CCCNC(=N)N)C(=O)N[C@@H](CC(C)C)C(=O)N[C@@H](CCCNC(=N)N)C(=O)N[C@@H](CC(C)C)C(=O)N[C@@H](CCCNC(=N)N)C(=O)N[C@@H](CC(C)C)C(=O)N[C@@H](CCCNC(=N)N)C(=O)NCC(N)=O)O2)c(=O)[nH]c1=O`, the “hydrolysis in serum-containing medium at 48 h” value in series [1] (DMEM with 10% FBS, 37 °C, 0.1 µg/µl, 48 h, gel analysis) came out at 20%. The “time up to which stability was kept, 50% FBS” value in series [1] (DMEM with 50% FBS, 12% polyacrylamide/8 M urea gel autoradiograph) is on record as “up to 24 h”. In addition, the “time up to which stability was kept, 90% FBS” value in series [1] (DMEM with 90% FBS, 12% polyacrylamide/8 M urea gel autoradiograph) is “up to 8 h”. For the same compound, in series [2], the “non-complementary miR-17 cleaved during 24 h” value came out at 90%. For the same compound, the “cleavage of miR-21 at a 20-fold excess of conjugate” value in series [3] (20-fold excess of conjugate, 72 h, primary data not shown) is recorded as at most 1%. Besides, in series [3] (conjugate 100 µM, 0-144 h), the “cleavage efficiency of miR-21 at a 100-fold excess of conjugate” value was “very slightly”. Moreover, the “total extent of miR-21^hybrid cleavage at a 20-fold excess of conjugates” value in series [4] was found to be 12%. For the same compound, in series [5], the “hybridization (binding) efficiency with miR-21” value turned out to be 77%.
